Laboratory results: paper PMC11089561, “Structural Investigations of Phthalazinone Derivatives as Allosteric Inhibitors of Human DNA Methyltransferase 3A” (ACS Medicinal Chemistry Letters, 2024)

Target: T1, DNMT3A_CD (catalytic domain of DNMT3A) (Homo sapiens, UniProt Q9Y6K1)
T1 construct: The catalytic domain of DNMT3A (residues 634 -912) were used for all experiments; made in house; host or cells: E. coli NiCo21 (DE3) (NEB)
Assay: In vitro methylation assay, IC50 determination ([3H]-SAM, poly dI-dC)
Assay type: biochemical
Details: ratio of IC50 values, % of 1a
Description: a. Figure S1. Dose response curves for compounds 1a-14 S3 […]
a. Figure S2. Double reciprocal plots of compounds 1a, 3, 4, 5, and 10 S4 […]
5) Chemical Synthesis and Compound Characterization of Compounds 1a-14 S6-S27 […]
8) NMR Spectra for Compounds 4-14 S32-S53
Expression and Purification of DNMT3A_CD
The catalytic domain of DNMT3A (residues 634 -912) were used for all experiments […]
DNMT3A_CD was expressed in NiCo21 (DE3) cells (NEB) using a codon optimized plasmid pET28a-hDNMT3A_CD (∆1-611). Cell cultures were grown in LB medium at 37 °C to an OD600 = 0.8. Cultures were cooled to 25 °C, then expression was induced by the addition of 1 mM IPTG (Gold Biotechnology). Cells were harvested by centrifugation after 5 hours and flash frozen in liquid nitrogen for storage at -80 °C.
Cells were resuspended in lysis buffer containing 50 mM K2HPO4/KH2PO4, 500 mM NaCl, 50 mM imidazole, 10% glycerol [v/v], 1 mM EDTA and 1 mM PMSF at pH 7.8.
Sonication was used for lysis and the supernatant was collected after centrifugation at 18,000 x g for 1 hour. Lysates were applied to an ÄKTA start FPLC system (GE healthcare) and loaded onto a 1 mL HisTrap Excel column (Cytiva). The column was washed with 50 mL of lysis […]
buffer and eluted with an identical buffer containing a higher imidazole concentration of 500 mM. Eluted protein was desalted with a 5 mL HiTrap Desalting column (Cytiva) and flash frozen in liquid nitrogen for storage at -80 °C. DNMT3A_CD concentration was determined using UV-vis with an extinction coefficient determined by protparam of 38,180 M-1 cm-1 to represent the monomeric state.
In Vitro Methylation Assays
Methylation assays were used to determine nanomolar amounts of methylated DNA product. Reactions were carried out in 50 mM K2HPO4/KH2PO4 at pH 7.8, 1 mM EDTA, 1 mM DTT, 0.2 mg/mL BSA, 20 mM NaCl, 150 nM DNMT3A_CD, 10 uM poly dI-dC (Sigma Aldrich), and 10 uM SAM (Sigma Aldrich) unless otherwise stated. The SAM cofactor was diluted with [3H]-SAM from PerkinElmer in 10 mM H2SO4. All inhibitors were dissolved and diluted in DMSO prior to addition to methylation reactions. Reactions with and without […]
All reactions containing inhibitors were preincubated with DNMT3A and inhibitor for 1 hour. Reactions were activated with poly dI-dC to a final volume of 20 uL, then incubated at 37 °C for 1 hour. Reaction aliquots were spotted on Hybond-N+ membranes (GE healthcare), then washed with 50 mM K2HPO4/KH2PO4 at pH 7.8 and ethanol. Membranes were dried and counted using a Hidex LS 300 scintillation counter. […]
Prism 10 and best-fit inhibition models were determined using an F-test (p < 0.0001). […]
Determination of IC50 Value
Percent activity of methylation assays was determined by comparing activities of assays with inhibitor to assays without inhibitor. Sigmoidal dose-response curves of percent activity vs compound concentration were fitted in Prism 10. The data was best-fit using Hill slope coefficient constrained to a value of -2. All assays were performed in triplicate, with additional repetitions added as necessary. […]
Figure S1: Dose response curves IDH compounds 1a-14 (A = 1-4, B = 5-8, C = 9-11, D = 12- […]
14). Reactions consisted of 150 nM DNMT3A, 10 uM SAM, and 10 uM poly dI -dC. The data […]
points represent the […]
(1 picture or pasted object on this page, not shown here)

Row | SMILES | Potency relative to lead compound 1a [%]
1 | O=C1[C@@H]2CC=CC[C@@H]2C(c2cccc(OCCCCCOc3ccc(-c4nn[nH]n4)cc3)c2)=NN1C1CCCCCC1 [Compound 9] | 155
2 | CN1N=C(c2cccc(OCCCCOc3ccc(-c4nn[nH]n4)cc3)c2)[C@H]2CC=CC[C@H]2C1=O [Compound 5] | 34
3 | O=C1[C@@H]2CC=CC[C@@H]2C(c2cccc(OCCCCOc3ccc(-c4nn[nH]n4)cc3)c2)=NN1Cc1ccc(F)c(F)c1 [Compound 7] | 77
4 | O=C(COc1cccc(C2=NN(C3CCCCCC3)C(=O)[C@@H]3CC=CC[C@H]23)c1)Nc1ccc(-c2nn[nH]n2)cc1 [Compound 12] | 36
5 | O=C1[C@@H]2CC=CC[C@@H]2C(c2cccc(OCCCCOc3ccc(-c4nn[nH]n4)cc3)c2)=NN1C1CCCCCC1 [Compound 4] | 140
6 | O=C1[C@@H]2CC=CC[C@@H]2C(c2cccc(OCCCOc3ccc(-c4nn[nH]n4)cc3)c2)=NN1C1CCCCCC1 [Compound 8] | 127
7 | O=C1[C@@H]2CC=CC[C@@H]2C(c2cccc(OC/C=C/COc3ccc(-c4nn[nH]n4)cc3)c2)=NN1C1CCCCCC1 [Compound 11] | 107
8 | O=C1[C@@H]2CC=CC[C@@H]2C(c2cccc(OC/C=C\COc3ccc(-c4nn[nH]n4)cc3)c2)=NN1C1CCCCCC1 [Compound 10] | 127
9 | c1ccc(OCCCCOc2ccc(-c3nn[nH]n3)cc2)cc1 [Compound 14] | ≤ 14
10 | O=C1[C@@H]2CC=CC[C@@H]2C(c2cccc(OCCCCOc3ccc(-c4nn[nH]n4)cc3)c2)=NN1Cc1ccccc1 [Compound 6] | 107
11 | COc1ccc(C2=NN(C3CCCCCC3)C(=O)[C@@H]3CC=CC[C@H]23)cc1OCCCCOc1ccc(C#N)cc1 [Compound 2] | ≤ 4
12 | COc1ccc(C2=NN(C3CCCCCC3)C(=O)[C@@H]3CC=CC[C@H]23)cc1OCCCCOc1ccc(C(=O)O)cc1 [Compound 3] | 60
